Tested on: GFP
Conditions: Fig 6C

## CCCCCCCCCCCCC/C=C/[C@@H](O)[C@@H](N)COP(=O)(O)O [S1P, sphingosine‐1‐phosphate]
  Direct interaction with GFP by MST: not observed
